# Values of other authors in paper PMC8679591, “FAPI-74 PET/CT Using Either ^18F-AlF or Cold-Kit ^68Ga Labeling: Biodistribution, Radiation Dosimetry, and Tumor Delineation in Lung Cancer Patients” (Journal of Nuclear Medicine, 2021).
# Conditions: in vivo
smiles,measurement,value
OC[C@H]1OC(O)[C@H]([18F])[C@@H](O)[C@@H]1O (stereo partly shown) [^18F-FDG],Effective dose,0.020 mSv/MBq
